Measurements: PubChem BioAssay AID493160 (Sanford-Burnham Center for Chemical Genomics, 2011)
Only a part is listed here, and it is no random draw. Active and inactive are the calls of the source.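 Rule for the calls: active = inhibition above about 35% when tested at 20 µM (limit read from the data); inactive = the rest.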

Amino acid sequences for entries named in this document (tags omitted). A change or cut given only in a name is not applied to a line headed by its entry.
UniProt Q2TB90: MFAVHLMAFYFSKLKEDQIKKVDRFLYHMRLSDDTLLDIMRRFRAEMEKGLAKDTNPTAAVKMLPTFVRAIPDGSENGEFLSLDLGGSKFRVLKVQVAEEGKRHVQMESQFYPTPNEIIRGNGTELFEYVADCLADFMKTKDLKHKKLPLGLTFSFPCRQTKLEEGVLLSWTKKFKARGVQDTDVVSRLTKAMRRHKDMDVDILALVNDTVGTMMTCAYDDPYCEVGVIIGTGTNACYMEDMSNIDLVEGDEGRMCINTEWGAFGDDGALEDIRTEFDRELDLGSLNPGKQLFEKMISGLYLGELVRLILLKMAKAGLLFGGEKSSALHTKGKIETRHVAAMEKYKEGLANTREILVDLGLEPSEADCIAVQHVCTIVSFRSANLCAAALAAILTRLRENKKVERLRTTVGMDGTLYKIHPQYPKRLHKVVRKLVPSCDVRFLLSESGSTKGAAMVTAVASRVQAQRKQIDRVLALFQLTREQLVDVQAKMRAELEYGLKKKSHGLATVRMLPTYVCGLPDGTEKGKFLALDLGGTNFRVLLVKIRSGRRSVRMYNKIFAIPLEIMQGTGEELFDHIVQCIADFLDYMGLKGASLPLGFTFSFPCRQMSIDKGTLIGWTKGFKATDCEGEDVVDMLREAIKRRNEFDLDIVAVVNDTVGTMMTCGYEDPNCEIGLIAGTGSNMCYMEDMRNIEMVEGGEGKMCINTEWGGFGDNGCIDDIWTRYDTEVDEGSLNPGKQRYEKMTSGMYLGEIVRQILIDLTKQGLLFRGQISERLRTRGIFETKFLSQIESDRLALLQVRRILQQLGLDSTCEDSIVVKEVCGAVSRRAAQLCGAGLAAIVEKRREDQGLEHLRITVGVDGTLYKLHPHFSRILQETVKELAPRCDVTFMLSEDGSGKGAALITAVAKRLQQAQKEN

What follows are compounds tested against Hexokinase HKDC1 (Homo sapiens) (UniProt Q2TB90) (assay: HKDC1 hexokinase inhibitors, primary screen, biochemical, fluorescence, uHTS (AID 493160;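 note: plate controls were DMSO wells with enzyme for no effect and DMSO wells lacking enzyme for full effect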)). Details: recombinant HKDC1, G6PDH/diaphorase resazurin coupled fluorescence; at 20 µM; active compounds read high.

| Compound | inhibition |
| --- | --- |
| Cc1c2c(nc3ccccc13)SC(C(Cl)Cl)C2 (stereo not given) | inactive: -8.1% |
| O=C(OC1CN2CCC1CC2)C12CC3CC(CC(C3)C1)C2 (stereo not given) | inactive: -6.63% |
| Cc1cc(=O)[nH]c(N[N+](=O)[O-])n1 | inactive: -2.43% |
| O=P1(N(CCCl)CCCl)OCCCN1CCCl (stereo not given) | inactive: -9.98% |
| O=P1(N(CCCl)CCCl)Nc2ccccc2N1 | inactive: -2.44% |
| COc1ccc2nc(NP(=O)(c3ccccc3)c3ccccc3)sc2c1 | inactive: -2.05% |
| COc1cc(I)ccc1[As](=O)(O)O | inactive: -2.16% |
| O=[N+]([O-])c1cc(Oc2ccc([N+](=O)[O-])cc2C(F)(F)F)cc([N+](=O)[O-])c1 | inactive: 10.3% |
| COc1ccc(N/C(=N/P(=O)(N2CCOCC2)N2CCOCC2)N2CCOCC2)cc1 | inactive: -8.85% |
| O=[As](O)(c1ccc(O)cc1)c1ccccc1O | inactive: 18.6% |
| C[As](=O)(O)c1cccc(C(=O)O)c1 | inactive: -2.76% |
| O=[N+]([O-])c1ccc(-c2cc([N+](=O)[O-])c(O)c([N+](=O)[O-])c2)cc1 | inactive: 22.3% |
| COc1cc(C(=O)NCC2(N3CCOCC3)CCCCC2)ccc1OCC(C)C | inactive: 0.2% |
| Cc1ccc(OP(=O)(Nc2ccc([N+](=O)[O-])cn2)Oc2ccc(C)cc2)cc1 | inactive: 0.4% |
| Cc1ccc2nc3c(c(C)c2c1)CC(C(Cl)Cl)S3 (stereo not given) | inactive: 8.67% |
| ClCCSc1nnc(-c2cccnc2)o1 | inactive: -0.23% |
| COC(=O)C1(C)COP(=O)(N2CCCCCC2)OC1 (stereo not given) | inactive: -0.23% |
| CC(C)c1ccc(OP(=O)(Nc2ccccn2)Oc2ccccc2F)cc1 (stereo not given) | inactive: 4.39% |
| CC(C)NC(=O)NP(=O)(Oc1ccccc1)Oc1ccccc1 | inactive: -6.54% |
| CCN(CC)C(=S)SC(NC=O)C(Cl)(Cl)Cl (stereo not given) | inactive: -23.2% |
| O=C(OC1CN2CCC1CC2)c1cccc2[nH]cnc12 (stereo not given) | inactive: -4.52% |
| O=[N+]([O-])c1cc([N+](=O)[O-])c(-c2ccn[nH]2)s1 | inactive: 4.21% |
| CCOC(=O)Nc1ccc([As](=O)(O)O)c(O)c1 | inactive: 6.6% |
| CC1CCNP(=O)(N(CCCl)CCCl)O1 (stereo not given) | inactive: -4.14% |
| CCCCOc1ccc(C(=O)NCC2(N3CCCCC3)CCCCC2)cc1OC | inactive: -2.67% |

| Compound | inhibition |
| --- | --- |
| Cc1cc(SC(NC(=O)c2ccccc2)C(Cl)(Cl)Cl)nc(C(C)C)n1 (stereo not given) | inactive: -3.29% |
| CCOC(=O)Nc1cccc([As](=O)(O)O)c1 | inactive: -1.76% |
| O=P(Nc1ccccn1)(c1cccc2ccccc12)c1cccc2ccccc12 | inactive: -1.44% |
| Cc1cc(SC(NC=O)C(Cl)(Cl)Cl)ncn1 (stereo not given) | inactive: 3.73% |
| O=[N+]([O-])c1ccc(Nc2ccc(Oc3ccc([N+](=O)[O-])cc3[N+](=O)[O-])cc2)c([N+](=O)[O-])c1 | inactive: -0.6% |
| COP1(=S)c2c(C)nn(CCC#N)c2N=C(c2ccc(F)cc2)N1C (stereo not given) | inactive: -0.41% |
| O=C(COc1ccccc1)OC1CN2CCC1CC2 (stereo not given) | inactive: -2.49% |
| O=C(Nc1ccncc1[N+](=O)[O-])c1ccc([N+](=O)[O-])cc1[N+](=O)[O-] | inactive: 6.24% |
| O=C(OC1CN2CCC1CC2)c1cccc([N+](=O)[O-])c1 (stereo not given) | inactive: -7.09% |
| CCOC(=O)c1ccc(NC(=O)C(C)(CCl)SC)cc1 (stereo not given) | inactive: -0.53% |
| CCC(C)N(CC(C)C)C(=S)SC(NC(C)=O)C(Cl)(Cl)Cl (stereo not given) | inactive: -25.6% |
| O=P1(Nc2ccccn2)COc2ccccc2OC1 | inactive: -0.89% |
| CCC1=CC2Cc3nc4ccc(Cl)cc4c(N)c3C(C1)C2 (stereo not given) | inactive: 13.3% |
| CCOP(=O)(NC(=NC(C)c1ccccc1)NC(C)c1ccccc1)OCC (stereo not given) | inactive: -4.51% |
| CCOP(=O)(Nc1ccc(C)cn1)OCC | inactive: 1.61% |
| CN(CCCl)Cc1cc(Cl)c(NC2=NCCN2)c(Cl)c1 | inactive: -4.22% |
| Clc1n[nH]nc1-c1nn[nH][15n]1 | inactive: -1.18% |
| CC(C)(C)C(=O)NC(Sc1ncccn1)C(Cl)(Cl)Cl (stereo not given) | inactive: -4.07% |
| COc1ccccc1CNC(=O)COC(=O)C(O)(c1ccccc1)c1ccccc1 | inactive: 1.96% |
| CC(C)/C=N\N=C(\N)N[N+](=O)[O-] | inactive: -0.17% |
| CN(C(=O)Cc1ccc(Cl)c(Cl)c1)[C@@H]1CCCC[C@H]1N1CCCC1 | inactive: -3.57% |
| CC1(CBr)Cn2c(nc3ccccc3c2=O)S1 (stereo not given) | inactive: -0.93% |
| Cc1nn(-c2ccccc2)c2c1P(=O)(N1CCOCC1)N(C)C(c1ccccc1)=N2 (stereo not given) | inactive: 12.1% |
| CC1CCC(C(C)C)C(OP(=O)(Nc2ccccn2)c2ccccc2)C1 (stereo not given) | inactive: 4.01% |
| Cc1ccc(C(=O)OC2CN3CCC2CC3)cc1 (stereo not given) | inactive: -5.46% |
